Results reported in patent US10174011B2, “Heterocyclic compounds, process for preparation of the same and use thereof” (SHANGHAI INSTITUTE OF MATERIA MEDICA, CHINESE ACADEMY OF …, priority 2014, dated 2019).

Protein sequences, listed by entry. Tags and fused reporters are not part of them.
UniProt P14416, whole entry: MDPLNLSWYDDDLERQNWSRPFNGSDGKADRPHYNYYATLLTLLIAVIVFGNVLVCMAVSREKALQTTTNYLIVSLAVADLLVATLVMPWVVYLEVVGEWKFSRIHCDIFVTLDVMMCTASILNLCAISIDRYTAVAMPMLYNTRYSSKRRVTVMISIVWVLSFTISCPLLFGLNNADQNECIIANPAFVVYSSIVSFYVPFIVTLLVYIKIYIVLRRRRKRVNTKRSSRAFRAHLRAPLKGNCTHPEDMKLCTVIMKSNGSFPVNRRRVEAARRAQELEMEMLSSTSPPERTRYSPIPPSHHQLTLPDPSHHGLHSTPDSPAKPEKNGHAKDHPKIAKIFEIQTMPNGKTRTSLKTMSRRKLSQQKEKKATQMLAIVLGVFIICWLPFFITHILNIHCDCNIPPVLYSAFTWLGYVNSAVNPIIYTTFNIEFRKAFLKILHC

Target: human recombinant D2 receptor (Homo sapiens (Human), UniProt P14416)
Test: D2 receptor antagonism activity test (inhibition of dopamine-induced decrease of cAMP production, LANCE cAMP 384 Kit)
Settings: read-out: D2 receptor antagonism (IC50, mol/L), HEK293 cells expressing human recombinant D2 receptor, 0.1 nM-10000 nM

Q: Which IC50 does the source give for O=c1ccc2ccc(CCCCCN3CCN(c4cccc5sccc45)CC3)cc2[nH]1 [Compound of example 11, 7-(5-(4-(benzo[b]thiophen-4-yl)piperazin-1-yl)pentyl)quinolin-2(1H)-one] here?
A: The IC50 was 10.2 nM.
